Data reported in ChEMBL document CHEMBL1221209.
Active and inactive are the calls of the source. No cut-off for these calls is given here.

Key:
Mus musculus [1] = test: Inhibition of MAGL activity in KIAA1363-expressing Swiss Webster mouse at 100 mg/kg, ip
Mus musculus [2] = test: Inhibition of FAAH activity in KIAA1363-expressing Swiss Webster mouse brain at 100 mg/kg, ip
Mus musculus [3] = test: Effect on CB1-dependent cannabinoid-mediated hypothermia in Swiss Webster mouse at 4 mg/kg, ip
Mus musculus [4] = test: Effect on CB1-dependent cannabinoid-mediated cataleptic behavior in KIAA1363-expressing Swiss Webster mouse at 100 mg/kg, ip

SMILES	inhibition (Mus musculus [1])	inhibition (Mus musculus [2])	Activity (Mus musculus [3])	Activity (Mus musculus [4])
CCOP(=S)(OCC)Oc1nc(Cl)c(Cl)cc1Cl	Active	Active	–	–
CCOP(=O)(OCC)Oc1nc(Cl)c(Cl)cc1Cl	–	–	Active	inactive
